Measurements: ChEMBL document CHEMBL3639038, “Fused pyridine, pyrimidine and triazine compounds as cell cycle inhibitors” (2014)

Sequences of proteins named here, by UniProt entry; tags and fusion partners are left off.
UniProt Q00534, whole entry: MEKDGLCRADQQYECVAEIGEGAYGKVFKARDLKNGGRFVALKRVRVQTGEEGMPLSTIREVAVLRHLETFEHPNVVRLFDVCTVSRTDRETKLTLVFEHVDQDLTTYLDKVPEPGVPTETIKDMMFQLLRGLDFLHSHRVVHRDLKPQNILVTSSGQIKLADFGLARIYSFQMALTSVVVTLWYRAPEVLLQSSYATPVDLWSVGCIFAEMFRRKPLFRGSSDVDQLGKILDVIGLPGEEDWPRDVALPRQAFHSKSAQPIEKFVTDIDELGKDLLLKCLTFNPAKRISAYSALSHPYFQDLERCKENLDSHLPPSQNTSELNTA

Target: Cyclin-dependent kinase 6 (Homo sapiens, UniProt Q00534)
Experiment: In Vitro Assay: The Cdk4 and Cdk6 inhibitory activity of the compounds is measured with a kinase inhibition assay using recombinant Cdk4/CyclinD1 or Cdk6/CyclinD3 protein complexes. The protein substrate used in the assay is the retinoblastoma protein (Rb). The kinase reactions are carried out in a 96-well filter plate (MSDV N6B50, Millipore). […] The mixture is incubated at room temperature for 1 hour and the proteins precipitated with an equal volume of 20% TCA. The plates are washed with 10% TCA according to the manufacturer's instruction and dried at room temperature. The amount of the phosphorylated Rb is determined with a TopCount (PerkinElmer).

IC50: 4.9 nM
Compound: COCCN1CCN(c2ccc(Nc3ncc4c5ccncc5n(C5CCCC5)c4n3)nc2)CC1
